# Measured values as given in PubChem BioAssay AID2732 (Emory University Molecular Libraries Screening Center, 2010).
# The entries are a selection whose mix differs from that of the whole data set. Active and inactive are the calls of the source.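 The calls were made as follows: active = compounds that reduced the stress-induced luciferase reporter signal by more than about 70% of percent inhibition (limit read from the data); inactive = the rest.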
# Experiment: inhibitors of CHOP promoter induction, primary screen, cell-based, unfolded protein response, luciferase reporter (AID 2732);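 also: 0% = tunicamycin plus vehicle and 100% = wells without tunicamycin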
# Conditions: CHO-K1 CHOP-promoter luciferase, tunicamycin-induced, 15-18 h; at 10 µM; stronger effect = higher value
row,SMILES,inhibition
1,O=C(NCC1(N2CCOCC2)CCCCC1)c1cc(=O)[nH]c2ccccc12,inactive: -40.9%
2,COc1ccc(NC2CCN(C(=O)OC(C)(C)C)CC2)cc1,inactive: 0.04%
3,CN1CCN(CCOC(=O)C(O)(c2ccccc2)c2ccccc2)CC1,inactive: 17.4%
4,N#CC1(Nc2ccccc2)CCN(CCc2ccccc2)CC1,inactive: 15.1%
5,O=C(NCC1(N2CCCCC2)CCCCC1)c1cccc([N+](=O)[O-])c1,inactive: 0.42%
6,CC(C)c1ccc(NC2CCN(C(=O)OC(C)(C)C)CC2)cc1,inactive: 53.5%
7,CN(C)c1cccc(C(=O)NCC2(N3CCCCC3)CCCCC2)c1,inactive: 1.52%
8,COc1ccc(CN(CCCl)CCCl)cc1Cl,inactive: 45%
9,O=C(OC1CN2CCC1CC2)C1c2ccccc2Oc2ccccc21 (centres undefined),inactive: 33.7%
10,N#CC1(Nc2ccccc2)CCN(Cc2ccccc2)CC1,inactive: -0.49%
11,CCOC(=O)N1CCC(Nc2ccc(OC)cc2)CC1,inactive: -6.3%
12,O=C(NCC1(N2CCOCC2)CCCCC1)c1cc2ccccc2o1,inactive: 6.18%
13,COc1ccc(C(=O)NCC2(N3CCCCC3)CCCCC2)c(OC)c1OC,inactive: -5.98%
14,Cc1ccc(OCC(C)C)c(CN(CCCl)CCCl)c1,inactive: 3.2%
15,COc1ccc(NC2CCN(CCc3ccccc3)CC2)c(OC)c1,inactive: 1.51%
16,CCOc1ccc(C)cc1CN(CCCl)CCCl,inactive: 13.3%
17,CN(C)c1ccc(C(=O)NCC2(N3CCCCC3)CCCCC2)cc1,inactive: 27.4%
18,CCN1CCC(Nc2cccc(F)c2)CC1,inactive: 12.6%
19,Fc1ccccc1NC1CCN(Cc2ccccc2)CC1,inactive: 10.9%
20,CCCOc1ccc(C)cc1CN(CCCl)CCCl,inactive: 32.4%
21,COc1cc(OC)cc(C(=O)NCC2(N3CCOCC3)CCCCC2)c1,inactive: 3.06%
22,CCC(CO)(C(=O)OC1CN2CCC1CC2)c1ccccc1 (centres undefined),inactive: 14.2%
23,CC(C)(C)OC(=O)N1CCC(Nc2ccccc2)CC1,inactive: 10%
24,CCOc1ncccc1C(=O)NCC1(N2CCOCC2)CCCCC1,inactive: 36.2%
25,O=C(OC1CN2CCC1CC2)C1c2ccccc2C=Cc2ccccc21 (centres undefined),inactive: 6.4%
26,N/C(=N\O)c1c(N)no[n+]1[O-],inactive: 8.22%
27,COc1ccc(C(=O)NCC2(N3CCOCC3)CCCCC2)cc1OC,inactive: 15.9%
28,c1ccc(CN2CCC(Nc3ccccc3)CC2)cc1,inactive: -3.99%
29,N#Cc1ccc(C(=O)NCC2(N3CCCCC3)CCCCC2)cc1,inactive: 23.7%
